Key:
[1] = biological target: T1, Neuronal acetylcholine receptor; alpha4/beta2 (Rattus norvegicus, UniProt P09483+P12390); assay: Inhibition of binding of [3H]nicotine to Nicotinic acetylcholine receptor alpha4-beta2 in rat cerebral cortical membranes at 100 uM concentration; type: cell membranes, Membrane
Method in brief: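 [3H]nicotine (0.2 nM) binding to rat cortical membranes, with 200 µM diisopropyl fluorophosphate, 120 min at 0–4 °C, triplicate. Nonspecific binding with 1 µM nicotine. Percent inhibition at 100 µM test agent; mean ± SEM, n = 4.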

Chains of the proteins cited; added tags and fusions are not shown. Lines headed by an entry give the natural chain unless they say otherwise; changes in a name come on top.
UniProt P09483: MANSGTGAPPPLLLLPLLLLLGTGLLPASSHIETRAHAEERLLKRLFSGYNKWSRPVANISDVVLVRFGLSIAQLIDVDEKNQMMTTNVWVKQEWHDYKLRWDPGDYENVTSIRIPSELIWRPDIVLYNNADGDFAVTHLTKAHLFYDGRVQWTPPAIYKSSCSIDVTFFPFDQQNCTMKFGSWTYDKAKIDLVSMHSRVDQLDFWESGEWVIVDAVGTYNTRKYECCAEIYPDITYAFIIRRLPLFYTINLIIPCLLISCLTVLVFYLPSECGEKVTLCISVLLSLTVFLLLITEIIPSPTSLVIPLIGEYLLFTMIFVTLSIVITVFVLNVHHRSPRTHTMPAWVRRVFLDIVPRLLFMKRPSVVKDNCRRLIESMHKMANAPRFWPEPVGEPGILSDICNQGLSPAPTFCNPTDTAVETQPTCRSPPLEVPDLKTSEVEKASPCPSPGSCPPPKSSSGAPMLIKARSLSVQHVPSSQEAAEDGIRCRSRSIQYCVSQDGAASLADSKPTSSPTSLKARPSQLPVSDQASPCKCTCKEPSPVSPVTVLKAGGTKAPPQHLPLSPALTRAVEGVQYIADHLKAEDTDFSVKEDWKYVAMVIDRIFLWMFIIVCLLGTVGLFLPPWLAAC
UniProt P12390, whole entry: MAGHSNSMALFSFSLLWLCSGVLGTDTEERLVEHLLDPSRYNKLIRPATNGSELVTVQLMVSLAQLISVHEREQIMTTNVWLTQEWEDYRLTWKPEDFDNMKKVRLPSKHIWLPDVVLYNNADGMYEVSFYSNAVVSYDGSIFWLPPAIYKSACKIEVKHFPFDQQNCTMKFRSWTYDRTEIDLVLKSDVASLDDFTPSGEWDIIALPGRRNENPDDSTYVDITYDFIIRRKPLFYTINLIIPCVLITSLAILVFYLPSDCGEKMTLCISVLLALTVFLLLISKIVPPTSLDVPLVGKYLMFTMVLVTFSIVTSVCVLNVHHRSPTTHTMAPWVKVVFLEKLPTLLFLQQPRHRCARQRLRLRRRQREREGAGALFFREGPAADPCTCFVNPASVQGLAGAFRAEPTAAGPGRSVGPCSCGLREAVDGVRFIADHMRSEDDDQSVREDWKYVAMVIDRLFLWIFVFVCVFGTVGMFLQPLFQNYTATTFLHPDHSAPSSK

[2] = biological target: T1, Neuronal acetylcholine receptor; alpha4/beta2; assay: The compound was evaluated for percentage inhibition of binding of [3H]- nicotine to Nicotinic acetylcholine receptor alpha4-beta2 in Rat Cerebral Cortical Membranes; type: protein-complex assay
Method in brief: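 Rat cerebral cortex membranes with 0.2 nM [3H]nicotine in HEPES binding buffer pH 7.4 containing 200 µM diisopropyl fluorophosphate. Incubation was 120 min at 0–4 °C, in triplicate. Nonspecific binding used 1 µM nicotine. Samples were filtered through polyethylenimine-soaked GF/B filters and counted.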

For `COC(=O)C1=CCC2CCC1N2C` (configuration not stated), the Ki [1] was 8.9 µM and the Ki [2] was 8.9 µM.
